Laboratory results: US8762074B2, “Optimizing culture medium for CD34<+> hematopoietic cell expansion” (Sino-Cell Technologies, priority 2004, dated 2014)

Legend:
WBC = assay: Ex vivo expansion culture of UCB CD133+/CD34+ cells, WBC growth (cell density at day 7); format: cell-based, human
Experimental: (§1) The UCB of full-termed healthy newborns, included uneventful vaginal births or cesarean sections, was harvested with a standard 250-ml blood bag containing citrate-phosphate-dextrose-adenine anticoagulant (Terumo, Shibuya-ku, Tokyo, Japan).
Buffy coat cells were obtained from UCB samples by centrifugation (700×g for 20 min), and were diluted with an equal volume of wash buffer (Dulbecco's phosphate buffered saline (D-PBS, Sigma, St. Louis, Mo.) contain 2 mM EDTA (Sigma)). Then the Buffy coat cells were layered onto Ficoll-Paque (ρ=1.077 g/ml, Amersham Biosciences, Uppsala, Sweden) density gradients to deplete red blood cells (RBC) (700×g for 40 min). The mononuclear cell (MNC) interface was collected, diluted into four volumes of wash buffer, and centrifuged to pellet the cells (700×g for 10 min). […] After 7 days, the cells were analyzed to compare with the day 0 control (all experiments were repeated at least four times).
Two-level factorial design followed the method of steepest ascent was carried out to find the optimal concentration of serum substitutes and cytokines for CD34<+> cells expansion. […] Its statistical significance was determined by an F-test and the significance of the regression coefficients was analyzed by a t-test. […]

[1] = tested on: CD34<+> hematopoietic cells; assay: Ex vivo expansion culture of UCB CD133+/CD34+ cells, CD34+ cell growth by flow cytometry (cell density at day 7); format: cell-based, human
Experimental: as §1
Buffy coat cells were obtained from UCB samples by centrifugation (700×g for 20 min), and were diluted with an equal volume of wash buffer (Dulbecco's phosphate buffered saline (D-PBS, Sigma, St. Louis, Mo.) contain 2 mM EDTA (Sigma)). Then the Buffy coat cells were layered onto Ficoll-Paque (ρ=1.077 g/ml, Amersham Biosciences, Uppsala, Sweden) density gradients to deplete red blood cells (RBC) (700×g for 40 min). The mononuclear cell (MNC) interface was collected, diluted into four volumes of wash buffer, and centrifuged to pellet the cells (700×g for 10 min). The MNC pellet was washed twice and resuspended in MACS buffer (D-PBS contained 0.5% bovine serum albumin (BSA, Sigma) and 2 mM EDTA) for CD133<+> cell purification. CD133<+> cord blood cells were isolated using the Miltenyi VarioMACS device (Miltenyi Biotec, Bergisch Gladbach, Germany), according to the manufacturer's instruction. Briefly, UCB MNC were incubated for 30 min at 4° C. with human IgG to block the Fc receptors and mouse monoclonal antibody to human CD133 microbead (Miltenyi Biotec). Labeled cells were applied to magnetic column (LS column, Miltenyi Biotec). Then, unbound cells were washed out, and CD133<+> cells were eluted from the column with MACS buffer. To improve the purity of the CD133+ (or CD34<+>) cells, a secondary purification cycle was performed with the same way. Then the cells were sampled for CD34<+> analysis to determine yield, purity and viability and assayed for colony-forming cells (CFC) as day 0 for control. To expand cells, CD133<+> cells were seeded at a concentration of 5×10^4 cells/ml in 24-well plate (1 ml per well, Falcon, N.J.) with variable serum substitutes, cytokines and medium according to experiment design. After 7 days, the cells were analyzed to compare with the day 0 control (all experiments were repeated at least four times).
Cells before and after expanding culture were analyzed by two-color flow cytometry on a FACSCaliber analyzer (Becton-Dickinson, NJ, USA). About 1×10^6 cells were stained with FITC-conjugated anti-human CD45 and Peconjugated anti-human CD34, and gated for CD45<+>CD34<+> cells with low side scatter, according to the CD34 enumeration protocols developed by the International Society of Hematotherapy and Graft Engineering (ISHAGE) (Sutherland Dr, et al, J Hematother 1996; 5:231-8). A replicate sample was stained with FITC-antiCD45 and PE-mouse IgG1 as an isotype control to ensure specificity.
Two-level factorial design followed the method of steepest ascent was carried out to find the optimal concentration of serum substitutes and cytokines for CD34<+> cells expansion. Fractional and full factorial design data were regressed by SPSS software (SPSS Inc. In: SPSS for Windows, base system user's guide. Release 6.0. Chicago, Ill.: SPSS Inc.; 1993. p. 235-47) to obtain the first order polynomial. Its statistical significance was determined by an F-test and the significance of the regression coefficients was analyzed by a t-test. The polynomial takes the form of White blood cell or CD34<+> cell (cells/ml)=β0+βiXi (1) where β's are the regression constants and X's are coded variables for the tested additives.

[2] = from Table 5, serum-containing medium, +1 = 10 ng/ml

B1: interleukin (IL)-3 (protein, UniProt P08700 20-152, looked up)
Interleukin-3: APMTQTTPLKTSWVNCSNMIDEIITHLKQPPLPLLDFNNLNGEDQDILMENNLRRPNLEAFNRAVKSLQNASAIESILKNLLPCLPLATAAPTRHPIHIKDGDWNEFRRKLTFYLKTLENAQAQQTTLSLAIF
notes: recombinant human growth factor
- regression coefficient of first-order model, Eq. (4) (WBC; [2]): 0.313 10^6 WBC cells/ml
- effect on WBC growth (WBC; per Eq. (2), serum-containing IMDM): stronger effects than the other cytokines
- effect on WBC and CD34<+> cell growth ([1]; 2^9−5 fractional factorial design in IMDM containing BIT2 (data not shown)): could facilitate WBC and CD34<+> cell growth
- regression coefficient of first-order model, Eq. (5) [1, 2]: 0.100 10^6 CD34<+> cells/ml
- effect on CD34<+> cell growth/expansion ([1]; per Eq. (3), serum-containing IMDM): can stimulate CD34<+> cell expansion
- effect on WBC and CD34<+> cell growth ([1]; per Eqs. (4) and (5), serum-containing medium): facilitated WBC and CD34<+> cell growth
- effect on WBC and CD34<+> cell growth ([1]; per Eqs. (10) and (11), serum-free IMDM + BIT2): positively affected WBC and CD34<+> cell growth
